# Values quoted from earlier work as cited in patent US20230085549A1 (Janssen Pharmaceutica NV, priority 2021, published 2023).
# Tested on: pregnant women
# Settings: 1566 women exposed in first trimester, cited from earlier work
compound,measurement,setting,value
Cc1nc2n(c(=O)c1CCN1CCC(c3noc4cc(F)ccc34)CC1)CCCC2 [risperidone],risk of cardiac malformations (RR),95% CI 0.88-1.81,1.26
same,risk of major birth defects (RR),95% CI 1.02-1.56,1.26
